Target: Metabotropic glutamate receptor 1 (Homo sapiens) (UniProt Q13255)
Test: Concentration for half maximal activation of metabotropic glutamate mGluR1b in human

Row | SMILES | EC50 [µM]
1 | N[C@@H](Cn1oc(=O)[nH]c1=O)C(=O)O [2-amino-3-(3,5-dioxo[1,2,4]oxadiazolidin-2-yl)propionic acid] | 16.4
2 | N[C@@]1(C(=O)O)CC[C@@H](C(=O)O)C1 [SMR001230688] | > 1000
